Data taken from paper PMC11504268 (Antibiotics, 2024).

Conditions: individual parameters from population PK, elimination phase half-life, n = 12, median (IQR)
Protocol: The estimation of parameters, including fixed and random effects, was conducted using first-order conditional estimation with the interaction method. This enables modelling of the interaction between the IIV in PK parameters and the residual variability (RV) in measured concentrations. […] Each model adhered to first-order kinetics, except the zero-order infusion processes. Each PK parameter in the model was described by the equation θi = θ × exp (ηi), where θ denotes the typical value of the PK parameter, θi is the individual PK parameter value for each participant, and ηi is a random variable encapsulating IIV. We hypothesised that IIV is normally distributed, with a mean of zero and variance ω^2. RV was modelled as normally distributed with a mean of zero and a variance σ^2. Additionally, we evaluated additive, proportional, and combined additive-proportional error models. […] The variability in the final model predictions was analysed using the median and 95% confidence intervals from 2000 bootstrap replicates. […] Covariates were assessed for both their statistical and clinical relevance, taking into account demographic factors (such as gender, age, weight, height, body mass index, and body surface area) and biochemical markers (including serum protein, albumin, creatinine, and cystatin C levels). […]

With CN[C@H](CC(C)C)C(=O)N[C@H]1C(=O)N[C@@H](CC(N)=O)C(=O)N[C@H]2C(=O)N[C@H]3C(=O)N[C@H](C(=O)N[C@H](C(=O)O)c4cc(O)cc(O)c4-c4cc3ccc4O)[C@H](O)c3ccc(c(Cl)c3)Oc3cc2cc(c3O[C@@H]2O[C@H](CO)[C@@H](O)[C@H](O)[C@H]2O[C@H]2C[C@](C)(N)[C@H](O)[C@H](C)O2)Oc2ccc(cc2Cl)[C@H]1O [vancomycin] the “t1/2β, Median (IQR)” value was 3.84 (3.63–4.26) h.
